Data on one substance can be found in patent publication US20090041767A1, “PHARMACEUTICAL COMBINATIONS” (priority 2007, published 2009).

By UniProt entry, the sequences of proteins in these tests, tags left out. Residues count along the entry.
UniProt P08648, 42-1049: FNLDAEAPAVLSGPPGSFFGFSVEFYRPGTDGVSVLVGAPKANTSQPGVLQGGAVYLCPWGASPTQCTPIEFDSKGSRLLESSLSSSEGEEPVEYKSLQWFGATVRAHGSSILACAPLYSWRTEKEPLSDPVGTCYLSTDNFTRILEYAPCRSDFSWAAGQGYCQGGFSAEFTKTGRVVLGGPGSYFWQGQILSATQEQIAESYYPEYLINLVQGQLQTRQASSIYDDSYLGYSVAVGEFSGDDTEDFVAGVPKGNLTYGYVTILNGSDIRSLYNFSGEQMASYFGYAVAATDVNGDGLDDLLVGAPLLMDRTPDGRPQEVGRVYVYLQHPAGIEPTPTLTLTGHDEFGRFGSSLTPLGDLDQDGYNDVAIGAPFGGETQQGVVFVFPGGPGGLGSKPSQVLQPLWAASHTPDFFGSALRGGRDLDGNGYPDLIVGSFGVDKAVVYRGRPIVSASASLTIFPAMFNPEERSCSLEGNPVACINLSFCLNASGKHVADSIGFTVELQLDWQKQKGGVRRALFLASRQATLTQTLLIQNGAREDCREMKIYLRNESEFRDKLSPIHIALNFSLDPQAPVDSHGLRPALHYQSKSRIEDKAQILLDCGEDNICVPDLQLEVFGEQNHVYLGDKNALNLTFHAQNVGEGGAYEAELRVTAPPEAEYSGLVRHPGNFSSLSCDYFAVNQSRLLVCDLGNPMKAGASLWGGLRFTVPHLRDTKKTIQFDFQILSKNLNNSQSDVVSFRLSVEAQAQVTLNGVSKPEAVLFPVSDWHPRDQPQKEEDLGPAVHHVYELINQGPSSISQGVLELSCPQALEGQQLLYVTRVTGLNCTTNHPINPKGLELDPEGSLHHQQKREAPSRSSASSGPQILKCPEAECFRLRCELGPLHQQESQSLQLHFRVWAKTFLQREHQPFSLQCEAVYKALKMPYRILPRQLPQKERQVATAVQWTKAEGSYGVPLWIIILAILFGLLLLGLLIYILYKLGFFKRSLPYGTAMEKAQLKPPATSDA
UniProt P09055, 21-798: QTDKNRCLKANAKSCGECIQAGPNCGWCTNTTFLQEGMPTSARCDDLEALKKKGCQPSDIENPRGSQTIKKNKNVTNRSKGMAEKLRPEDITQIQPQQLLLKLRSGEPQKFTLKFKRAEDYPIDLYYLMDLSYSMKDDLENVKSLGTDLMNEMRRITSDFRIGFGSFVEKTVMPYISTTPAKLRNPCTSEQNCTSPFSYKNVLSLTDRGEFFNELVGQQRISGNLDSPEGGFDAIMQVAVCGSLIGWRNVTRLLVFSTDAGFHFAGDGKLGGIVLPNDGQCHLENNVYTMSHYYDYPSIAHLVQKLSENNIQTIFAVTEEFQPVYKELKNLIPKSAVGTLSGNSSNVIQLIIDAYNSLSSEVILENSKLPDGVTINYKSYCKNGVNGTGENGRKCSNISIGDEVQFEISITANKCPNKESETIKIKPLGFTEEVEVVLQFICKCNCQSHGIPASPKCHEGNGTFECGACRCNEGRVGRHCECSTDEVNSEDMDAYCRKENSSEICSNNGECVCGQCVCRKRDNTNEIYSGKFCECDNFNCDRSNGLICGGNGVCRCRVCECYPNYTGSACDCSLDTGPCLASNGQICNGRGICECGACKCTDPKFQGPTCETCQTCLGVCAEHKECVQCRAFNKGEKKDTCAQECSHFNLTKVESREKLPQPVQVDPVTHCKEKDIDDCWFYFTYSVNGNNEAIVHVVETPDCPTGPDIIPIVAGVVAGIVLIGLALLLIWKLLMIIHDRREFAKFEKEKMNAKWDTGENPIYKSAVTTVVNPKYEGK
UniProt P11688, 45-1053: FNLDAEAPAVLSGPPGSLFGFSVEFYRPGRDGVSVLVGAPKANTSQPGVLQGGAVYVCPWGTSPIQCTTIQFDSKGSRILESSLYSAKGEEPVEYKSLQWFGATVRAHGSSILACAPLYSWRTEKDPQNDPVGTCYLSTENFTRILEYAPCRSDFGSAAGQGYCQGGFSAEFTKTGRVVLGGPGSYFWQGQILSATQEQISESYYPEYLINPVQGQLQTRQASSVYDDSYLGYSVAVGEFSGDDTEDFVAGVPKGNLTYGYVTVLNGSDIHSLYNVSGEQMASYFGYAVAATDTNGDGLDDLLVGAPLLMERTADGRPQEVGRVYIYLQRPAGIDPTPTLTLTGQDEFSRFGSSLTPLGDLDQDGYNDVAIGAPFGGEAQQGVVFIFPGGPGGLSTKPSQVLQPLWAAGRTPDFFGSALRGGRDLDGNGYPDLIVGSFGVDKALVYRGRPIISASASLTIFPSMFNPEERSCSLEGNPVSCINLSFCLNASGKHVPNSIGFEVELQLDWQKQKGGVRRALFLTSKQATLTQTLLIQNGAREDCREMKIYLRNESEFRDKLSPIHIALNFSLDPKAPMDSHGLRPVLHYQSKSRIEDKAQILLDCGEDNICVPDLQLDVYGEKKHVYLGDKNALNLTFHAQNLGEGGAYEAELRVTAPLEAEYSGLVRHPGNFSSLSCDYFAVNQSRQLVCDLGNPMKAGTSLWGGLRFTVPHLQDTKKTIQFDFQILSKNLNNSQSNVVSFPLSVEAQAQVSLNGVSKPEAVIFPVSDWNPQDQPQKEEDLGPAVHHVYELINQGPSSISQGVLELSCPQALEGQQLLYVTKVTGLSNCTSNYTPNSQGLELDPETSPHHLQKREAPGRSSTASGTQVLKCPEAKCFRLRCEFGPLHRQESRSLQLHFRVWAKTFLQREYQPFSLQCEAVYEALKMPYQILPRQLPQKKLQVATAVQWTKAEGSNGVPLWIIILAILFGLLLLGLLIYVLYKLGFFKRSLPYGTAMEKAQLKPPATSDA

In assay [1] the target is human α5β1 (Homo sapiens, UniProt P05556+P08648). Description: antibody binding to human α5β1 integrin.
The target of assay [2] is mouse α5β1 (Mus musculus, UniProt P09055+P11688). The experiment in a line: antibody binding to mouse α5β1 integrin.

With “volociximab: high-affinity, chimeric IgG4 monoclonal antibody that specifically binds α5β1 integrin; heavy chain SEQ ID NO: 2, light chain SEQ ID NO: 4”, the “binding to human α5β1” value in assay [1] is recorded as “binds human α5β1 with high affinity”. Besides, the “binding to mouse α5β1” value in assay [2] is reported as “does not cross-react with mouse α5β1”.
